# Hits are enriched below; roughly 0.62% of the tested compounds scored in any of these assays.
# Epigenetic derep – regulators of epigenetic silencing causing reporter derepression in mouse cells | murine LDR cells, GFP reporter derepression, 30 h | Potency, µM (doses to about 53.9 µM), for the others: at the highest dose GFP activation, actives largely listed as activators | 280,000 compounds, 0.2% hits; also: potency is read from the fitted curve at half-maximal effect; % of control where 0% means no effect; nearly all actives have a fitted effect of over 60% in size
#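 Murine LDR cells bearing a silenced CMV-driven GFP reporter were exposed to compound for 30 h at 37 C. After PBS washes, GFP-positive cells (20-120 um objects) counted by laser-scanning microplate cytometry.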
# PINK1 modulator – changes PINK1 expression; AID 624263; 410,000 compounds, 0.2% hits; PINK1 immunofluorescence, high-content cytometry, 24 h; Potency, µM (highest dose often 76.6 µM), without a hit: at the top dose activation (PINK1 increase), most hits filed as activators; active = well fitted activation curve with a large enough effect; inconclusive = small, poorly fitted or top-dose-only effect; cell line not stated here; also: potency is read from the fitted curve at half-maximal effect; % of control where 0% means no effect; nearly all actives have a fitted effect of over 65% in size
#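 Measures PINK1 amount and localization on or inside mitochondria by immunofluorescence. Stable cells get compounds at 5 concentrations for 24 hours before fixation and staining; CCCP controls included.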
# uPA generation – blocks generation of uPA at the cell surface | AID 540303 | 330,000 compounds, 0.31% hits | Potency, µM (titrated, usually from 38.3 µM), for inactives: at the highest dose activity change, negative = inhibition, most hits filed as inhibitors | cell surface uPA generation assay, qHTS; active = well fitted inhibition curve with a large enough effect; inconclusive = small, poorly fitted or top-dose-only effect; inactive = no such curve, though single readings can be large or run the other way; tested in mouse RAW 264.7 cells; also: potency is read from the fitted curve at half-maximal effect; % is scaled to controls: 0 for no effect and ±100 for the full control effect; nearly all actives have a fitted effect of over 55% in size
# miR-21 reporter – raises the signal of a miR-21 reporter; HeLa miR-21 FLuc reporter, luciferase, 48 h; Potency, µM (top dose mostly 38.3 µM), for inactives: at the highest dose reporter change, positive = more light; AID 2288; 340,000 tested, under 10 active; active = well fitted rising curve with a large enough effect; inconclusive = small, poorly fitted or top-dose-only effect; inactive = no such curve, though single readings can be large or run the other way;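 note: % of control where 0% means no effect; miR-21 action dims this reporter so a rising signal means less miR-21 action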
#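 HeLa cells stably expressing CMV-driven firefly luciferase with a downstream miR-21 binding sequence, endogenously expressing miR-21, were treated with titrations (up to about 40uM final) for 48 hours at 37 degree Celsius. Luciferase luminescence was read after lysis.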
# p53 reactivation – re-activators of mutant p53; H1299 p53-A138V BP100-luciferase reporter, luminescence, 24 h; Potency, µM (doses to about 92.2 µM), for inactives: top-dose activity change, positive = activation, usual class: activators; 320,000 compounds, 0.063% hits; also: potency is read from the fitted curve at half-maximal effect; % of control where 0% means no effect; nearly all actives have a fitted effect of over 45% in size
#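 p53-null H1299 cells stably carrying temperature-sensitive p53-A138V and a BP100-luciferase reporter were pinned with compounds (4-point, 1:5 series) and held 24 hrs at 37 deg C. Luminescence was read 10 min after detection reagent.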
# IL-2 act – activates IL-2 in a cell-based reporter assay; IL-2 activation reporter assay, cell-based qHTS; stimulated with anti-CD3/CD4/CD28 beads; in transgenic mouse T cells; activation, % (series mostly up to about 46 µM); 360,000 compounds, 0.065% hits; in the data active = activation above about 50%; inconclusive = mostly about 30% to 49%; also: 0% is about no effect
#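 EGFP and DsRed fluorescence is measured by plate cytometry in unstimulated transgenic mouse T cells exposed to compound for 60 minutes, then stimulated 18 hours at 37 degrees C with anti-CD3/anti-CD4 beads plus anti-CD28.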
# Numbers without * were called inactive; ? = inconclusive; nt = no result given. Unless noted, calls follow the shape of the dose curve; as a rule, active = well fitted curve in the direction sought with a large enough effect; inconclusive = small, poorly fitted or top-dose-only effect, or another doubt; inactive = no such curve, though single readings can be large; an effect the other way counts as inactive or inconclusive.
# The first 2 records as a preview:
# Screens in order: Epigenetic derep, PINK1 modulator, miR-21 reporter, IL-2 act, p53 reactivation, uPA generation
1: CC1(C)CC2CC(C)(CN2S(=O)(=O)c2ccc(C(=O)Nc3ccc(S(=O)(=O)N4CCOCC4)cc3)cc2)C1 (stereo not drawn)
  0%, 1%, 20%, -3, -3%, -4%
2: CCOC(=O)c1cc([N+](=O)[O-])sc1NC(=O)c1ccc(S(=O)(=O)N2CC3(C)CC2CC(C)(C)C3)cc1 (stereo not drawn)
  2%, 2.5µM*, 2%, 4, ?, 10%

# Main list, from the first entry:
# Screens in order: Epigenetic derep, PINK1 modulator, miR-21 reporter, IL-2 act, p53 reactivation, uPA generation
1: CC1(C)CC2CC(C)(CN2S(=O)(=O)c2ccc(C(=O)Nc3ccc(S(=O)(=O)N4CCOCC4)cc3)cc2)C1 (stereo not drawn)
  0%, 1%, 20%, -3, -3%, -4%
2: CCOC(=O)c1cc([N+](=O)[O-])sc1NC(=O)c1ccc(S(=O)(=O)N2CC3(C)CC2CC(C)(C)C3)cc1 (stereo not drawn)
  2%, 2.5µM*, 2%, 4, ?, 10%
3: COCC(=O)Nc1cc(C(=O)N2CCN(C)C(c3ccccc3)C2)c2c(c1)nc(-c1ccncc1)n2C (stereo not drawn)
  nt, -1%, nt, nt, nt, nt
4: C=CCn1c2ccccc2c(=O)c2cc(C#CC[C@@H](C)O)ccc21
  nt, 0%, nt, 0, ?, 4µM*
5: O=C(NCC(c1ccco1)N1CCc2ccccc21)C(=O)Nc1ccc(F)cc1F (stereo not drawn)
  nt, ?, nt, -3, 6%, 3.2µM*
6: CC(Oc1ccccc1)C(=O)NCC1Cc2cc(F)cc(-c3ccccn3)c2O1 (stereo not drawn)
  nt, 0%, nt, nt, nt, nt
7: CN1C(=O)N(C)C2=NNC=NC2(O)C1=O (stereo not drawn)
  2%, nt, nt, nt, nt, nt
8: CCC(=O)Nc1ccc2c(c1)C(=O)N(C1CCCCC1)C2=O
  -1%, 3.5µM*, -8%, 0, 7%, -10%
9: CC(=O)c1ccccc1-c1ccc2c(c1)CC(CNC(=O)c1ccnc(Cl)c1)O2 (stereo not drawn)
  nt, 2%, nt, nt, nt, nt
10: Cc1ccccc1N=C1NC(=O)/C(=C/c2cccn2C)S1
  0%, 4%, 10%, 0, 1%, ?
11: Cn1cccc1/C=C1\CCC/C(=C\c2cccn2C)C1=O
  13µM*, 12%, -59%, 5, ?, -5%
12: COCC1CCCN(Cc2ccc3c(c2)CN(C(=O)c2ccc(-c4ccc(C)o4)cc2)CCO3)C1 (stereo not drawn)
  nt, 1%, nt, nt, nt, nt
13: C=CS(=O)(=O)N(Cc1ccc(Cl)c(Cl)c1)C[C@@H](O)CO
  nt, 3%, nt, 0, -22%, 3.5µM*
14: O=C(NCCc1nnc2n1CCN(Cc1ccsc1)CC2)c1ccc(F)cc1
  nt, 1%, nt, nt, nt, nt
15: COc1ccc(/C=C/c2nccc3ccccc23)cc1OC
  nt, 2%, nt, nt, nt, nt

# (listing goes on)
# Screens in order: Epigenetic derep, PINK1 modulator, miR-21 reporter, IL-2 act, p53 reactivation, uPA generation
16: CC(C)n1c(O)c(N=Nc2ccc(Cl)nn2)c2ccccc21
  ?, 3%, -11%, 88*, 1%, 19%
17: Cc1nn(Cc2c(Cl)cccc2Cl)c(C)c1NC(=O)c1cc(C(C)C)on1
  7%, 13%, 18%, -2, ?, 3.2µM*
18: Cc1ccc(C)c(CN2C[C@H](Sc3ccccn3)C[C@H]2C(=O)Nc2ccc3sc(C)nc3c2)c1
  nt, 0%, nt, nt, nt, nt
19: COc1cccc2nc3cc(C)c(C)cc3nc12
  1%, 0%, 5%, -1, 1%, 3.2µM*
20: COc1cccc2c1nc(C)c1cc(C)oc12
  -1%, -1%, -44%, -1, ?, -8%
21: CCn1cc(CNC(=O)c2cc(-c3ccc(C)cc3)nc3ccc(Br)cc23)c(C)n1
  16µM*, 0%, 2%, nt, nt, nt
22: COc1ccc(/C(O)=C2\C(=O)C(=O)N(c3cc(C)on3)C2c2cccc(OC)c2OC)cc1C (stereo not drawn)
  -1%, 1%, -11%, -2, -8%, -4%
23: COc1cccc(C2c3c(oc4ccc(Cl)cc4c3=O)C(=O)N2c2cc(C)on2)c1OC (stereo not drawn)
  2%, 13µM*, -4%, 2, -2%, nt
24: CCN1CCCC1CNC(=O)c1cnn(-c2nccc(-c3cc4ccccc4o3)n2)c1C1CC1 (stereo not drawn)
  nt, 1%, nt, nt, nt, nt
25: Cc1ccc(-c2nc3ccccc3s2)cc1NC(=O)c1cc(-n2cnnc2)ccc1Cl
  -1%, 3.5µM*, -40%, 0, 26%, -22%
26: CN1C(=O)/C(=C\c2cc(N=Nc3ccccc3)ccc2O)SC1=S
  -1%, 40µM*, -6%, 0, 4%, 3%
27: CN1C(=O)/C(=C\c2ccccc2OCc2ccccc2)SC1=S
  nt, ?, 1%, 12, 4%, -1%
28: CC(C)Cc1nc2cc(NS(=O)(=O)N(C)C)cc(C(=O)N3CCc4ccccc4C3)c2n1C
  nt, -1%, nt, nt, nt, nt
29: COc1cccc(CN2CCCC(c3nc(C)ncc3-c3ccc(F)cc3)C2)c1OC (stereo not drawn)
  nt, 0%, nt, nt, nt, nt
30: COCCCN=C1NN=C(c2cc(C)n(-c3ccccc3F)c2C)CS1
  1%, 9%, 11%, -3, 24%, 6.3µM*

# Arranged by SMILES length (rising): part of the list above
# Screens in order: Epigenetic derep, PINK1 modulator, miR-21 reporter, IL-2 act, p53 reactivation, uPA generation
16: CC(C)n1c(O)c(N=Nc2ccc(Cl)nn2)c2ccccc21
  ?, 3%, -11%, 88*, 1%, 19%
17: Cc1nn(Cc2c(Cl)cccc2Cl)c(C)c1NC(=O)c1cc(C(C)C)on1
  7%, 13%, 18%, -2, ?, 3.2µM*
24: CCN1CCCC1CNC(=O)c1cnn(-c2nccc(-c3cc4ccccc4o3)n2)c1C1CC1 (stereo not drawn)
  nt, 1%, nt, nt, nt, nt

# The list continues:
# Screens in order: Epigenetic derep, PINK1 modulator, miR-21 reporter, IL-2 act, p53 reactivation, uPA generation
31: COCCCN=C1NN=C(c2cc(C)n(-c3ccccc3)c2C)CS1
  -1%, 0%, -32%, -4, ?, -2%
32: O=C(NCc1cccnc1)/C(=C\c1ccc(-c2ccc(Cl)c(Cl)c2)o1)S(=O)(=O)c1ccccc1
  0%, -1%, ?, -3, -29%, 10µM*
33: CCCCCCN1C[C@H](O)[C@@H](n2cc(-c3ccc(F)cc3)nn2)C[C@@H]1c1ccc(Cl)cc1
  nt, 16µM*, nt, -5, nt, nt
34: Cc1cc(CNC(=O)c2cnn(-c3nccc(-c4ccc5c(c4)OCO5)n3)c2C2CC2)on1
  nt, 1%, nt, nt, nt, nt
35: Cc1ccc(S(=O)(=O)Cc2ccc(C(=O)N3CCN(c4cccc(C)c4C)CC3)o2)cc1
  -1%, 4%, ?, -3, nt, 0.89µM*
36: COc1ccc(N2CCN(C(=O)c3ccc(CS(=O)(=O)c4ccc(OC)cc4)o3)CC2)cc1
  0%, 4%, 3%, -2, -6%, -7%
37: COc1ccc(S(=O)(=O)Cc2ccc(C(=O)N3CCN(c4cccc(C)c4)C(C)C3)o2)cc1 (stereo not drawn)
  0%, 13%, 30%, 0, 11%, 5.6µM*
38: CNc1ccc(/C=C2\C=Cc3ccccc32)cc1I
  nt, 9%, nt, nt, nt, nt
39: COC(=O)[C@@]1(Cc2ccc(OC)cc2)[C@@H]2C(=CC(=O)[C@H]2CC(=O)C(=O)N2CCCC2)CN1C(=O)c1ccccc1
  -1%, 0%, ?, 0, -22%, 8.9µM*
40: Cc1nnc(NC(=O)c2ccc(N3CCCC3=O)cc2)s1
  nt, 0%, nt, -1, ?, -4%
41: Cc1csc(NC(=O)c2ccc(N3CCCC3=O)cc2)n1
  -2%, 0%, 20%, 0, -8%, 2.8µM*
42: COC(=O)c1cc(CNC(=O)c2cccc(F)c2)cc(NC(=O)c2ccccc2OC)c1
  nt, -1%, nt, nt, nt, nt
43: Cc1ccc(Nc2c(-c3ccc(C)cc3)nc3ccc(C)cn23)cc1
  5%, 1%, -19%, nt, nt, nt
44: Cc1ccc(Nc2c(-c3ccccn3)nc3cc(C)ccn23)cc1
  1%, ?, 28%, -1, ?, -2%
45: Cc1ccn2c(Nc3ccc4c(c3)OCO4)c(-c3ccccn3)nc2c1
  1%, 40µM*, -51%, 1, 20µM*, 2%
46: Cc1ccc(Nc2c(-c3ccccn3)nc3ccc(C)cn23)cc1
  -5%, ?, ?, -1, ?, 6.3µM*
